The numbers were not newly measured in paper PMC5718165, which cites them from elsewhere.

Amino acid sequences for entries named in this document (tags omitted). Residues count along the entry.
UniProt Q27987, 22-763: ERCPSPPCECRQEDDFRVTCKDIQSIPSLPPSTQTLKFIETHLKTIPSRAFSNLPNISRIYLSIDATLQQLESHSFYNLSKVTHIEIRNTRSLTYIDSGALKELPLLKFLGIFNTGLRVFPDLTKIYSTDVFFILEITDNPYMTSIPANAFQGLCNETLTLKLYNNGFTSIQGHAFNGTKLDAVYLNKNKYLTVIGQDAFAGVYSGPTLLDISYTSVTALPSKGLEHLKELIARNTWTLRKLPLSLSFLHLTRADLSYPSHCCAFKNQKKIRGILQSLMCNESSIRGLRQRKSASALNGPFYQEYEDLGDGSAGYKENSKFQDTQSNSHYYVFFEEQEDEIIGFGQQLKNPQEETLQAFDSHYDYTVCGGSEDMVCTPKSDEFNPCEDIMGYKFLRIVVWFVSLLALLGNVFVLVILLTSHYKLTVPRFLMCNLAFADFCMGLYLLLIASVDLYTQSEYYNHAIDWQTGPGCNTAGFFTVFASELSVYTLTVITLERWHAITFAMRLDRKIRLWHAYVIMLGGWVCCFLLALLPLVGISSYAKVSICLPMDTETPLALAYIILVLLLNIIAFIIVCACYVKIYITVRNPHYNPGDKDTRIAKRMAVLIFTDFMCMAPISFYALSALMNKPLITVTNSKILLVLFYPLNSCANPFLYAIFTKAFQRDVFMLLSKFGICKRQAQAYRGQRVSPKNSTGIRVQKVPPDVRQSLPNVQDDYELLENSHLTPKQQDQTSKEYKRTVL

What is called Kd is the concentration at which binding is half-saturated.

This data set addresses TSHR (Bos taurus) (UniProt Q27987).

Take TSH (from UniProt P01217): the Kd is 50 nM.
